One data set concerns the target SIK3 (Homo sapiens (Human), UniProt Q9Y2K2). The conditions noted are these: read-out: SIK3 IC50.
A short description of data set [1]: Mouse liver microsomal stability. The conditions noted are these: Table 5A.
Data set [2] can be described thus: Human liver microsomal stability. The note with it: Table 5A. (Liver microsomes are vesicles of endoplasmic reticulum, rich in cytochrome P450 enzymes.)
Data set [3] can be described thus: Full pharmacokinetic study in mice.

Protein sequences, listed by entry. Tags and fused reporters are not part of them. Lines headed by an entry give the natural chain unless they say otherwise; changes in a name come on top.
UniProt Q9Y2K2: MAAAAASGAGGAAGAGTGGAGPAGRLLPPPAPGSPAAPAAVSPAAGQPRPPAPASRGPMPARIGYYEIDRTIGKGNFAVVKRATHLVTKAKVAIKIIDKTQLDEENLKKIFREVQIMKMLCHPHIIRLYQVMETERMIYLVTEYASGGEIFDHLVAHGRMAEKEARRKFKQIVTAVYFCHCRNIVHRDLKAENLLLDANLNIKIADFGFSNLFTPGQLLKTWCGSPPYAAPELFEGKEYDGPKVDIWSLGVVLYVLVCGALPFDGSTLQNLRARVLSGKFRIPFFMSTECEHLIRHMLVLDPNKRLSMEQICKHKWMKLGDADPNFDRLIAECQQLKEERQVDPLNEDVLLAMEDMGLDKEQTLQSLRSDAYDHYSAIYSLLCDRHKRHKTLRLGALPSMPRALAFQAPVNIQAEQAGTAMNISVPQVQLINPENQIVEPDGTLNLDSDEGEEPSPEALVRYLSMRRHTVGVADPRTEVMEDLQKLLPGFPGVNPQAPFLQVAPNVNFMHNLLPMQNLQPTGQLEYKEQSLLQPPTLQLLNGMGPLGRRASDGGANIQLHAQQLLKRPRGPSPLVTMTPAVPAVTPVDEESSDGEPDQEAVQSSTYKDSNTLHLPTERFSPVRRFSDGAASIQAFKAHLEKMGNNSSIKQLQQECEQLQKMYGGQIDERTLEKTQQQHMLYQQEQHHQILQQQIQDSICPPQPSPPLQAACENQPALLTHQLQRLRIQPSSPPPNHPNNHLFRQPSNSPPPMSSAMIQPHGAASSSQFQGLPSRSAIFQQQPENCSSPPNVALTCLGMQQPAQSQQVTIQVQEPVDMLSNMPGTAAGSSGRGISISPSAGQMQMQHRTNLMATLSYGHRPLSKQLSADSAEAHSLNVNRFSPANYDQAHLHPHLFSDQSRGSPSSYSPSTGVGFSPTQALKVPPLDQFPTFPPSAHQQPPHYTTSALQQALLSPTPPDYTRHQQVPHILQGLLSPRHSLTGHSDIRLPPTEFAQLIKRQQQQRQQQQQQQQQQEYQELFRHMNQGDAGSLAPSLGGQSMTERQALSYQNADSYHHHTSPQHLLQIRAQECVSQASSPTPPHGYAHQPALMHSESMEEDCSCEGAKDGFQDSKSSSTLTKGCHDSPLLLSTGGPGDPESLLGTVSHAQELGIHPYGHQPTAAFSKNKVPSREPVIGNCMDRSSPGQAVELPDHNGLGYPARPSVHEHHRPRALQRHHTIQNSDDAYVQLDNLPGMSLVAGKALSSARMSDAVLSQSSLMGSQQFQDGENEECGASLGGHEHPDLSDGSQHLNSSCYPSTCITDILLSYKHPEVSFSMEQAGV

What is called IC50 is the concentration at which inhibition is half-maximal. Usually Tmax stands for the time at which the peak concentration occurs. One may read the Vss as the apparent volume that relates the amount in the body to the concentration in plasma or blood.

Regarding `Cc1nc(Nc2ncc(C(=O)NC3CN4CCC3CC4)s2)cc(N2CCN(CCO)CC2)n1` (stereo not shown), at SIK3, the half-maximal inhibitory concentration (IC50) came out at 8.85 µM.

`Cc1nc(Nc2ncc(C(=O)Nc3c(C)csc3Cl)s2)cc(N2CCN(CCO)CC2)n1` [Compound C7, N-(2-chloro-4-methylthiophen-3-yl)-2-((6-(4-(2-hydroxyethyl)piperazin-1-yl)-2-methylpyrimidin-4-yl)amino)thiazole-5-carboxamide]: the “Mouse liver microsomal stability, Half-life” value in data set [1] came to 12 min. Also, the “Human liver microsomal stability, Half-life” value in data set [2] was 5 min. In addition, in data set [3] (1 mg/kg iv), the “AUCinf” value turned out to be 360 nM·h, the “AUClast” value was 340 nM·h, the “CL” value is 94 mL/min/kg and the “Tmax” value worked out at 4.8 min. Further, in data set [3] (1 mg/kg iv), the “Vss” value stood at 5.4 L/kg and the “t1/2” value is listed as 1.2 h. For the same molecule, in data set [3] (30 mg/kg po), the “AUCinf (nM*h)” value was 2,337 nM*h, the “AUClast (nM*h)” value is 2,328 nM*h and the “t1/2” value stood at 3.3 h. In addition, the “Tmax (h), Total” value in data set [3] (mice, 30 mg/kg po, total) came to 2.00 h.

Values taken from US20230348453A1, “HALOGENATED-HETEROARYL AND OTHER HETEROCYCLIC KINASE INHIBITORS, AND USES THEREOF” (iOmx Therapeutics AG, priority 2020, published 2023).
